Laboratory results: ChEMBL document CHEMBL5705890, “Antitumor activity of an allosteric inhibitor of centromere-associated protein-E” (Proc Natl Acad Sci U S A, 2010)

The chains behind the UniProt entries cited, without tags or fusion partners. Where a name states a change or a piece, a line headed by the entry shows the natural chain unless it says otherwise.
UniProt Q6RT24: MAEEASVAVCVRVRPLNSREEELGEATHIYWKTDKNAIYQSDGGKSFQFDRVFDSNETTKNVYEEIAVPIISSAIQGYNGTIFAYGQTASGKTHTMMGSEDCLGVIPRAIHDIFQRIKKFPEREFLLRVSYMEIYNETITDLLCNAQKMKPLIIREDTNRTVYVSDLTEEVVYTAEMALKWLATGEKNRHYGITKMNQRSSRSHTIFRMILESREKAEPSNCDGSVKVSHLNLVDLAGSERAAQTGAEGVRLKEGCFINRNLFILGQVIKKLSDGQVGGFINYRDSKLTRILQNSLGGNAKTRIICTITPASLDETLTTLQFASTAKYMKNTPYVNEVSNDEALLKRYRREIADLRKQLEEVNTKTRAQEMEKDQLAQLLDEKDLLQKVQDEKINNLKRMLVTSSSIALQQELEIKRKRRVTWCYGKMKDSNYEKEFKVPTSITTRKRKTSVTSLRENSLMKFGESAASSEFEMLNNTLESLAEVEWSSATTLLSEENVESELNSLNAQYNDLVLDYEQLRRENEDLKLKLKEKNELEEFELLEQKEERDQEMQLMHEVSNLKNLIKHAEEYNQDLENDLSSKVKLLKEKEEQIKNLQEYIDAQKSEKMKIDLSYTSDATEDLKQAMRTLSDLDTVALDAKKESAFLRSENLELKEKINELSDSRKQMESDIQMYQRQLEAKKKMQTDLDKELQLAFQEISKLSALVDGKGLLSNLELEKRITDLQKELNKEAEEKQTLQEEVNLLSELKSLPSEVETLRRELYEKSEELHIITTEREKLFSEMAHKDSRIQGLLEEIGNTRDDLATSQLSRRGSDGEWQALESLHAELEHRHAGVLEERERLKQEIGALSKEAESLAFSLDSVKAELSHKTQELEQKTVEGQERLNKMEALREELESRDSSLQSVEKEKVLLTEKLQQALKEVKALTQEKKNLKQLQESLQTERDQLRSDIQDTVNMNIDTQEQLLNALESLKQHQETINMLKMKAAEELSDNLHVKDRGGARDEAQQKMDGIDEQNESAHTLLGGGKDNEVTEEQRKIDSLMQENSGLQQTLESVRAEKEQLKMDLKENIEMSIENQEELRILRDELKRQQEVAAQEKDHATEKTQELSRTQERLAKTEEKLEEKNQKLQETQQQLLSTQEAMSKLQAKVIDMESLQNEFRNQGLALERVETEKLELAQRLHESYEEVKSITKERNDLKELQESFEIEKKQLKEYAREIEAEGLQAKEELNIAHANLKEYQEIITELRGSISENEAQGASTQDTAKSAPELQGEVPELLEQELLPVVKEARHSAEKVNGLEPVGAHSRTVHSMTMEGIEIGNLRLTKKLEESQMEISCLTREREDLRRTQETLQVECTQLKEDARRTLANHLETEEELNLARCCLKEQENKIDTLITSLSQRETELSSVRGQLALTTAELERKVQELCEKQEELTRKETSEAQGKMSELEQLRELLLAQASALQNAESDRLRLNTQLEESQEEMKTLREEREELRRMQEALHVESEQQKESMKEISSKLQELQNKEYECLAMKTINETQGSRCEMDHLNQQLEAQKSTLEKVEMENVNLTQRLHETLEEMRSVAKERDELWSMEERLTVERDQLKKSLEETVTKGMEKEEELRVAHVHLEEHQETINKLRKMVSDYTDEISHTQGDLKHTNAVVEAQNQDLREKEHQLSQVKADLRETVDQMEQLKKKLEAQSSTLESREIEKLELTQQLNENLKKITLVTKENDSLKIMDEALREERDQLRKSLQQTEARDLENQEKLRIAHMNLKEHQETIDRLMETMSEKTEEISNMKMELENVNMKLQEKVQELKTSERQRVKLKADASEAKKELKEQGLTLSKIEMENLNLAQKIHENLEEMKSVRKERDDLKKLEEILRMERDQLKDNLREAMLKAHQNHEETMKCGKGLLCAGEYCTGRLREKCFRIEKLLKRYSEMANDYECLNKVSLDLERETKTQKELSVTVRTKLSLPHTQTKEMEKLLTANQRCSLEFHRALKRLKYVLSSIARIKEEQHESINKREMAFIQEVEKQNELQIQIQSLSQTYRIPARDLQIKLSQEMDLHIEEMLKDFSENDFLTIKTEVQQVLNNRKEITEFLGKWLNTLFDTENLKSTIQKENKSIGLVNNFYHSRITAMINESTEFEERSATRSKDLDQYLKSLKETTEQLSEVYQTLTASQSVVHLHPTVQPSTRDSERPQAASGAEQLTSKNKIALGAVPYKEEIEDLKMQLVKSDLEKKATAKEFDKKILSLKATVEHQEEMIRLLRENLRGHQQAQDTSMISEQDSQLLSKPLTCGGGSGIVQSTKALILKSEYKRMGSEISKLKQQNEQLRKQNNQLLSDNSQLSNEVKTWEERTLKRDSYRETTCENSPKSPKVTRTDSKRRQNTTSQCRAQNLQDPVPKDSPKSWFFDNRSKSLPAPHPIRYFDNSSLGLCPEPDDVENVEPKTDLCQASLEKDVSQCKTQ

Biological target: Centromere-associated protein E (Mus musculus) (UniProt Q6RT24)
Experiment: Binding affinity to wild-type mouse CENP-E assessed as ATPase activity

Structure (SMILES): CC(C)Oc1ccc(C(=O)N[C@H](CNC(=O)CN(C)C)Cc2ccc(-c3cn4cccc([C@H](C)O)c4n3)cc2)cc1Cl
- Activity: 0.31 s⁻¹
